By UniProt entry, the sequences of proteins in these tests, tags left out.
UniProt P05067, whole entry, looked up: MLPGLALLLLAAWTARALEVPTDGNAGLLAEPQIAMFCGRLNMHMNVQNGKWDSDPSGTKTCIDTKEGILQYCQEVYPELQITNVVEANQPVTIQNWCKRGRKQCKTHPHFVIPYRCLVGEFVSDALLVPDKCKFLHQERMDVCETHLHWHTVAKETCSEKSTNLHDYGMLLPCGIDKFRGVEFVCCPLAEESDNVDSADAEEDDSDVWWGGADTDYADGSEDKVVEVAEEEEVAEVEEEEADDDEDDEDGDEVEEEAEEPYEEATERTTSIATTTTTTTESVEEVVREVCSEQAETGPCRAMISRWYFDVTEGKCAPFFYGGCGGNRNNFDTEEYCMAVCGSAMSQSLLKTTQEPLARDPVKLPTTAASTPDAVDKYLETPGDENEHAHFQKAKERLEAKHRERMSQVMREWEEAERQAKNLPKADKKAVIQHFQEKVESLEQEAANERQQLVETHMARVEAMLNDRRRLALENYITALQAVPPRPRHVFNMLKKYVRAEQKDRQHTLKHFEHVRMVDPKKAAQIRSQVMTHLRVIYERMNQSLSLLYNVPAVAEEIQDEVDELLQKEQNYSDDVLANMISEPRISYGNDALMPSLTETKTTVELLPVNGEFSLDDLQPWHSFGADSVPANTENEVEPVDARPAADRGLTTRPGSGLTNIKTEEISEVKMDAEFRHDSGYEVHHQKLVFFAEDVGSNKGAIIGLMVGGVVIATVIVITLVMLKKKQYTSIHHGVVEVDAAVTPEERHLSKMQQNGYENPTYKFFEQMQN

pIC50: −log10 of the molar value.
These molecules were tested against Amyloid-beta precursor protein (Homo sapiens, UniProt P05067) (assay: Electrochemiluminescence (ECL)-Based Immunoassay: To measure γ-secretase activity, membranes were incubated at 37° C. for 1 h in 50 μL of buffer containing 20 mM Hepes (pH 7.0) and 2 mM EDTA. At the end of the incubation, Aβ 40 and Aβ 42 were measured using an electrochemiluminescence (ECL)-based immunoassay. Aβ 40 was identified with antibody pairs TAG-G2-10 and biotin-W02, while Aβ 42 was identi).
`C[P@]1(=O)OC[C@@]2(CCC[C@@]3(S(=O)(=O)c4ccc(C(F)(F)F)cc4)c4c(F)ccc(F)c4OC[C@@H]23)CO1` gave a pIC50 of 6.40.
Work on `C[P@]1(=O)OC[C@@]2(CCC[C@@]3(S(=O)(=O)c4ccc(Cl)cc4)c4c(F)ccc(F)c4OC[C@@H]23)CO1` yielded a pIC50 of 6.38.
Molecule `C[P@]1(=O)OC[C@]2(CCC[C@@]3(S(=O)(=O)c4ccc(C(F)(F)F)cc4)c4c(F)ccc(F)c4OC[C@@H]23)CO1` has a pIC50 of 7.10.
`C[P@]1(=O)OC[C@]2(CCC[C@@]3(S(=O)(=O)c4ccc(Cl)cc4)c4c(F)ccc(F)c4OC[C@@H]23)CO1` gave a pIC50 of 8.02.

— ChEMBL document CHEMBL3886962, “Spirocyclic sulfones as gamma secretase inhibitors” (2016)
